Data on 16 compounds can be found in patent EP1903056A2, “HLA-A1, -A2 -A3, -A24, -B7, and -B44 tumor associated antigen peptides and compositions” (priority 2002, dated 2004).

Assay [1] has as its target B*4002 (B61) (Homo sapiens, UniProt P01889, A65T/A93T/A95T/D138N/D201E/D98Y/E176V/E204Q/E69K/K202T/N87E/Q56L/Q94N/R180L/S48T/Y33H/Y91S). Description: B44 supertype peptide binding, B*4002. As to conditions: read-out: B* 4002.
The target of assay [2] is B*4402 (Homo sapiens, UniProt P01889, A223V/A65T/A93T/A95T/D201E/D98Y/E176V/E187L/E204Q/E69K/G107R/H137Y/K202T/L105A/L119I/N104T/N87E/Q56L/Q94N/R106L/R155S/R180D/S101N/S121R/S35A/S48T/T118I/V36M/W191S/Y140D/Y91S). Nature of the assay: B44 supertype peptide binding, B*4402. As to conditions: read-out: B* 4402.
Assay [3] has as its target B*4403 (Homo sapiens, UniProt P01889, A223V/A65T/A93T/A95T/D201E/D98Y/E176V/E187L/E204Q/E69K/G107R/H137Y/K202T/L105A/L119I/N104T/N87E/Q56L/Q94N/R106L/R155S/R180L/S101N/S121R/S35A/S48T/T118I/V36M/W191S/Y140D/Y91S). Nature of the assay: B44 supertype peptide binding, B*4403. As to conditions: read-out: B* 4403.
For assay [4], the target named is B*4501 (Homo sapiens, UniProt P01889, A329T/A65T/A93T/A95T/C349S/D138N/D201E/D98Y/E176V/E187L/E204Q/E69K/H137Y/K202T/L119W/N87E/Q56L/Q94N/R155S/R180D/S121R/S35A/S48T/V127L/V306I/V36M/W191S/Y140L/Y33H/Y91S). Description: B44 supertype peptide binding, B*4501. As to conditions: read-out: B* 4501.
For assay [5], the system named is B44 supertype (B*1801, B*4001, B*4002, B*4402, B*4403, B*4501). Description: B44 supertype cross-binding (degeneracy, number of alleles bound). Further details: species or system human. As to conditions: number of the six B44 alleles bound.
The target of assay [6] is B*1801 (Homo sapiens, UniProt P01889, A329T/A93T/A95T/C349S/D201E/D54G/D98Y/E176V/E187T/E204Q/E69T/K202T/Q94N/R155S/R180L/S121R/V306I/Y140S/Y195H/Y33H/Y91S). Description: B44 supertype peptide binding, B*1801.
Assay [7] addresses B*4001(B60) (Homo sapiens, UniProt P01889, A65T/A93T/A95T/D138N/D98Y/E176V/E69K/N87E/Q56L/Q94N/R180L/S121R/S35A/S48T/T167S/V36M/W171L/Y33H/Y91S). Description: B44 supertype peptide binding, B*4001. As to conditions: read-out: B* 4001.
Setting [8] is: Table 29: MAGE2-derived B44 peptides.
Where [9] appears, read: Table 28: p53-derived B44 peptides.

Where two headings read alike, the source gives them in different places.

For the compound `CSCC[C@H](NC(=O)[C@H](CCCNC(=N)N)NC(=O)[C@@H]1CCCN1C(=O)CNC(=O)[C@H](CCC(=O)O)NC(=O)[C@H](CCC(=O)O)NC(=O)[C@H](CCC(=O)O)NC(=O)[C@@H](N)CCC(N)=O)C(=O)N[C@@H](Cc1ccccc1)C(=O)O`, the IC50 came to 7750 nM in assay [1] (setting [8]), 237 nM in assay [2] (setting [8]), 409 nM in assay [3] (setting [8]) and 2170 nM in assay [4] (setting [8]). For the same compound, the Degeneracy in assay [5] (setting [8]) was found to be 3.

In the case of `N=C(N)NCCC[C@H](NC(=O)[C@H](CCC(=O)O)NC(=O)[C@@H](N)Cc1c[nH]cn1)C(=O)N[C@@H](CS)C(=O)N[C@@H](CO)C(=O)N[C@@H](CC(=O)O)C(=O)N[C@@H](CO)C(=O)N[C@@H](CC(=O)O)C(=O)NCC(=O)O` [compound 614], the IC50 in assay [6] (setting [9]) is 1120 nM; in assay [1] (setting [9]), greater than 10000 nM; in assay [2] (setting [9]), 2030 nM; in assay [4] (setting [9]), 13400 nM. The same compound gave a Degeneracy in assay [5] (setting [9]) of 2.

On to `CC(C)C[C@H](NC(=O)[C@@H]1CCCN1C(=O)[C@@H]1CCCN1C(=O)[C@H](CCC(=O)O)NC(=O)[C@@H](N)C(C)C)C(=O)N[C@@H](CO)C(=O)N[C@@H](CCC(N)=O)C(=O)N[C@@H](CCC(=O)O)C(=O)N[C@H](C(=O)O)[C@@H](C)O` [compound 622], for which the IC50 in assay [7] (setting [9]) is 17100 nM; in assay [1] (setting [9]) it was greater than 10000 nM; in assay [2] (setting [9]) it was 3190 nM; in assay [3] (setting [9]), 236 nM; in assay [4] (setting [9]), greater than 10000 nM. Besides, the Degeneracy in assay [5] (setting [9]) is recorded as 1.

Turning to `CC(C)C[C@H](NC(=O)[C@H](Cc1ccc(O)cc1)NC(=O)[C@H](CCC(=O)O)NC(=O)[C@@H](N)C(C)C)C(=O)N[C@@H](CC(=O)O)C(=O)N[C@@H](CC(=O)O)C(=O)N[C@@H](CCCNC(=N)N)C(=O)N[C@@H](CC(N)=O)C(=O)N[C@H](C(=O)O)[C@@H](C)O` [compound 628], the IC50 in assay [6] (setting [9]) is 1440 nM; in assay [7] (setting [9]), greater than 10000 nM; in assay [1] (setting [9]), greater than 10000 nM; in assay [2] (setting [9]), 10100 nM; in assay [4] (setting [9]) it was 13500 nM. In assay [5] (setting [9]), this compound came in with a Degeneracy of 1.

For `CC(C)C[C@H](NC(=O)[C@H](C)NC(=O)[C@H](CCC(=O)O)NC(=O)[C@@H](N)CC(N)=O)C(=O)N[C@@H](CCC(=O)O)C(=O)N[C@@H](CC(C)C)C(=O)N[C@@H](CCCCN)C(=O)N[C@@H](CC(=O)O)C(=O)N[C@@H](C)C(=O)O` [compound 635], the IC50 stood at 3890 nM in assay [7] (setting [9]), 6640 nM in assay [1] (setting [9]), 4270 nM in assay [2] (setting [9]) and 1580 nM in assay [3] (setting [9]). Besides, in assay [5] (setting [9]), the Degeneracy was found to be 1.

With `CSCC[C@H](NC(=O)[C@H](CCC(=O)O)NC(=O)[C@H](C)N)C(=O)N[C@@H](CC(C)C)C(=O)N[C@@H](CCC(=O)O)C(=O)N[C@@H](CO)C(=O)N[C@H](C(=O)N[C@@H](CC(C)C)C(=O)O)C(C)C` [compound 658], the IC50 in assay [6] (setting [8]) came out at 968 nM; in assay [2] (setting [8]), 327 nM; in assay [4] (setting [8]), 302 nM. Also, the Degeneracy in assay [5] (setting [8]) came out at 5.

As for `CSCC[C@H](NC(=O)[C@H](CO)NC(=O)[C@H](CC(C)C)NC(=O)[C@H](CCC(=O)O)NC(=O)[C@@H](N)CCC(=O)O)C(=O)N[C@@H](CC(C)C)C(=O)N[C@@H](CCC(=O)O)C(=O)N[C@H](C(=O)N[C@@H](Cc1ccccc1)C(=O)N[C@@H](CCC(=O)O)C(=O)NCC(=O)O)C(C)C` [compound 663], the IC50 is 1.5 nM in assay [6] (setting [8]), greater than 10000 nM in assay [7] (setting [8]), 294 nM in assay [1] (setting [8]) and 163 nM in assay [4] (setting [8]). Further, in assay [5] (setting [8]), the Degeneracy is 5.

For the compound `CC(C)C[C@H](NC(=O)[C@H](C)NC(=O)[C@H](CCC(=O)O)NC(=O)CNC(=O)[C@H](CCCNC(=N)N)NC(=O)[C@H](C)NC(=O)[C@H](CCC(=O)O)NC(=O)[C@@H](N)CC(C)C)C(=O)O` [compound 668], the IC50 is 163 nM in assay [6] (setting [8]), 99 nM in assay [7] (setting [8]), greater than 10000 nM in assay [2] (setting [8]) and greater than 10000 nM in assay [4] (setting [8]). Further, the Degeneracy in assay [5] (setting [8]) was 4.

As for `CC(C)C[C@H](NC(=O)CNC(=O)[C@H](CC(C)C)NC(=O)[C@H](C)NC(=O)[C@H](CCC(=O)O)NC(=O)CNC(=O)[C@H](CCCNC(=N)N)NC(=O)[C@H](C)NC(=O)[C@H](CCC(=O)O)NC(=O)[C@@H](N)CC(C)C)C(=O)N[C@H](C(=O)O)C(C)C` [compound 670], the IC50 in assay [6] (setting [8]) was 158 nM; in assay [7] (setting [8]) it was 198 nM; in assay [2] (setting [8]), greater than 10000 nM; in assay [4] (setting [8]) it was 1910 nM. In addition, the Degeneracy in assay [5] (setting [8]) worked out at 4.

In the case of `CC[C@H](C)[C@H](NC(=O)[C@@H]1CCCN1C(=O)[C@@H](NC(=O)[C@@H](NC(=O)[C@H](CCC(=O)O)NC(=O)[C@@H](N)C(C)C)C(C)C)C(C)C)C(=O)N[C@@H](CO)C(=O)N[C@@H](Cc1c[nH]cn1)C(=O)N[C@@H](CC(C)C)C(=O)O` [compound 676], the IC50 in assay [6] (setting [8]) was determined as 149 nM; in assay [2] (setting [8]), 9080 nM; in assay [4] (setting [8]) it was 13800 nM. This compound showed a Degeneracy in assay [5] (setting [8]) of 4.

Regarding `CC(C)C[C@H](NC(=O)CNC(=O)[C@H](CC(C)C)NC(=O)[C@H](C)NC(=O)[C@H](CCC(=O)O)NC(=O)CN)C(=O)N[C@H](C(=O)NCC(=O)N[C@@H](C)C(=O)O)C(C)C` [compound 684], the IC50 turned out to be 9530 nM in assay [6] (setting [8]) and 6130 nM in assay [2] (setting [8]). In assay [5] (setting [8]), this compound gave a Degeneracy of 3.

In the case of `CC[C@H](C)[C@H](NC(=O)[C@H](CCCCN)NC(=O)[C@H](CCC(=O)O)NC(=O)[C@@H](N)CCC(=O)O)C(=O)N[C@@H](Cc1c[nH]c2ccccc12)C(=O)N[C@@H](CCC(=O)O)C(=O)N[C@@H](CCC(=O)O)C(=O)N[C@@H](CC(C)C)C(=O)O` [compound 701], the IC50 in assay [6] (setting [8]) worked out at 753 nM; in assay [7] (setting [8]) it was 9080 nM; in assay [2] (setting [8]) it was 12400 nM. This compound yielded a Degeneracy in assay [5] (setting [8]) of 2.

For the compound `CC[C@H](C)[C@H](NC(=O)[C@H](CCCCN)NC(=O)[C@H](CCC(=O)O)NC(=O)[C@@H](N)CCC(=O)O)C(=O)N[C@@H](Cc1c[nH]c2ccccc12)C(=O)N[C@@H](CCC(=O)O)C(=O)N[C@@H](CCC(=O)O)C(=O)N[C@@H](CC(C)C)C(=O)N[C@@H](CO)C(=O)N[C@@H](CCSC)C(=O)N[C@@H](CC(C)C)C(=O)O` [compound 702], the IC50 in assay [6] (setting [8]) is 1640 nM; in assay [7] (setting [8]), 4980 nM; in assay [1] (setting [8]), greater than 10000 nM; in assay [2] (setting [8]) it was 1860 nM. Besides, the Degeneracy in assay [5] (setting [8]) came to 2.

Regarding `CC(C)C[C@H](N)C(=O)N[C@@H](CCC(=O)O)C(=O)N[C@H](C(=O)N[C@@H](Cc1ccccc1)C(=O)N[C@@H](CCC(=O)O)C(=O)NCC(=O)N[C@@H](CCCNC(=N)N)C(=O)N[C@@H](CCC(=O)O)C(=O)N[C@@H](CC(=O)O)C(=O)N[C@@H](CO)C(=O)N[C@H](C(=O)O)C(C)C)C(C)C` [compound 703], the IC50 in assay [6] (setting [8]) was 639 nM; in assay [7] (setting [8]), 2620 nM; in assay [2] (setting [8]), greater than 10000 nM; in assay [4] (setting [8]) it was greater than 10000 nM. Further, the Degeneracy in assay [5] (setting [8]) is 2.

In the case of `CC(C)[C@H](NC(=O)[C@H](CO)NC(=O)[C@H](CC(=O)O)NC(=O)[C@H](CCC(=O)O)NC(=O)[C@H](CCCNC(=N)N)NC(=O)CNC(=O)[C@H](CCC(=O)O)NC(=O)[C@@H](N)Cc1ccccc1)C(=O)N[C@@H](Cc1ccccc1)C(=O)N[C@@H](C)C(=O)O` [compound 704], the figures for the IC50 in assay [6] (setting [8]), in assay [7] (setting [8]) and in assay [1] (setting [8]) were 242 nM, greater than 10000 nM and 4780 nM, respectively. Besides, the Degeneracy in assay [5] (setting [8]) stood at 2.

In the case of `CC[C@H](C)[C@H](NC(=O)[C@H](CCCCN)NC(=O)[C@H](CCC(=O)O)NC(=O)[C@H](CCC(=O)O)NC(=O)[C@@H]1CCCN1)C(=O)N[C@@H](Cc1c[nH]c2ccccc12)C(=O)N[C@@H](CCC(=O)O)C(=O)N[C@@H](CCC(=O)O)C(=O)N[C@@H](CC(C)C)C(=O)O` [compound 710], the IC50 is 577 nM in assay [6] (setting [8]); 19400 nM in assay [7] (setting [8]); 3910 nM in assay [1] (setting [8]); 2890 nM in assay [2] (setting [8]); 17300 nM in assay [4] (setting [8]). In addition, the Degeneracy in assay [5] (setting [8]) is 1.
